# Results from article PMC7723054.
# The list shows a part of the results.
# T1: LIN28A (human?, UniProt Q9H9Z2 1-209)
# T1 sequence: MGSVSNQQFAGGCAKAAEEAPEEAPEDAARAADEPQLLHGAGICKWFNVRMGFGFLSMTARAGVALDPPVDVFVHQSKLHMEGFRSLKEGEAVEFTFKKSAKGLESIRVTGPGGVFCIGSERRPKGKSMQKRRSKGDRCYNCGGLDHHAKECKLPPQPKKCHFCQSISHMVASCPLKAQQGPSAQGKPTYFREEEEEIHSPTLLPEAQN
# T2: CIRBP (Homo sapiens, UniProt Q14011 1-172)
# T2 sequence: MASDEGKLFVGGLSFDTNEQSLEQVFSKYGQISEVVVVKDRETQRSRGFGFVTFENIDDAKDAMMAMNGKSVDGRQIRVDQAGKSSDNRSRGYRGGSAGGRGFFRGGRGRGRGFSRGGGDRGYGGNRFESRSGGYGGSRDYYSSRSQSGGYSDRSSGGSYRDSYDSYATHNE
# T3: DHX36 (Homo sapiens, UniProt Q9H2U1 1-1008)
# T3 sequence: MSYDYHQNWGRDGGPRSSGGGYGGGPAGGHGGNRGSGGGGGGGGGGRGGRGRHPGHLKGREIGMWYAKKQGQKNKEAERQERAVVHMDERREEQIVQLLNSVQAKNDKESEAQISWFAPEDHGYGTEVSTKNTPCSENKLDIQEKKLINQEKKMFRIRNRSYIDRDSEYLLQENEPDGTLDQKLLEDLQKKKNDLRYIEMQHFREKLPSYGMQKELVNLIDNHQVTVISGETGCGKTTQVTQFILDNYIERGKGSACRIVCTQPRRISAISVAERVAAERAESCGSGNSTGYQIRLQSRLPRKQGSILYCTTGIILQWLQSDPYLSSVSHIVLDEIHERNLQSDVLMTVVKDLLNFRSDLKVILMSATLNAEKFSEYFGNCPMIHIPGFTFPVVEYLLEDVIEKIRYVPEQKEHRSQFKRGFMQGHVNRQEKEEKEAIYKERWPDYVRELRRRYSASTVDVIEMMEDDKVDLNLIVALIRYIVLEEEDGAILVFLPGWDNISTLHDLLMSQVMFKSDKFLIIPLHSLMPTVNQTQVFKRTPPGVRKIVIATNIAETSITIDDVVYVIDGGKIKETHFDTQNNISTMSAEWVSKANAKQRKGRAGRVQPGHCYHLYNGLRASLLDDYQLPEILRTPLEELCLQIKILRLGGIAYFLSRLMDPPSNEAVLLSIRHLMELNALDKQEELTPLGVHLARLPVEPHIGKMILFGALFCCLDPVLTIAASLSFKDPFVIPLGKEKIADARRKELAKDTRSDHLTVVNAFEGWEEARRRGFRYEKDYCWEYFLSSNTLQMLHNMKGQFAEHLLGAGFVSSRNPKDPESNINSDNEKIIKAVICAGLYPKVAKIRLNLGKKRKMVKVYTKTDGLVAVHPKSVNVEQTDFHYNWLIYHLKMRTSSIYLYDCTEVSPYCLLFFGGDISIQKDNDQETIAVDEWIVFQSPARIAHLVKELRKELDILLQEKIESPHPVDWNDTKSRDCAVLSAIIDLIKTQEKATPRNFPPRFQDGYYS
# Assays:
# Assay in all cases: FOREST: bead pull-down of RNA structure library v1, barcode microarray; U1A/LIN28A: 20 mM HEPES pH 7.5, 80 mM KCl, 20 mM NaCl, 10% glycerol, 2 mM DTT, 0.1 ug/uL BSA, 4 C; BG4/CIRBP/DHX36: 10 mM Tris-HCl pH 7.5, 100 mM KCl (or LiCl),; high values mean tight binding
# [1] = molecular target: T1, LIN28A
# [2] = molecular target: T2, CIRBP
# [3] = molecular target: T3, DHX36
Binder,binding signal [1] [z-score],binding signal [2] [z-score],binding signal [3] [z-score]
hsa-mir-1302-7 (structured_RNA) RNA: GGGAAGAUUCGUACGCUCAGGACCUACUGGUGUACGAAGUUUCAGCUGGUGCAAUAAUUGGGCUGAAGCUUCGUGCAC,-0.0267,0.33,-0.859
hsa-mir-3612 (structured_RNA) RNA: GGGAACUGCGUUCGGGCAUGAUCCCUAGGGUGUACGAAGUUUCAGCUGGAAGGAAUGGGAUCUACUUCCAGCUGAAGCUUCGUGCAC,-0.0292,0.264,0.418
hsa-mir-589 (structured_RNA) RNA: GGGAUGGAGAACAAGCGCGCGGUACAUUGGUGUACGAAGUUUCAGCCUGAGCUGGGUACUGCCUGUUCAGGCUGAAGCUUCGUGCAC,-0.0305,-0.556,1.66
hsa-mir-4539 (structured_RNA) RNA: GGGAAAGCAUGCCAGGUGUUAUGGCUAAGGUGUACGAAGUUUCAGCUGCUGUGCUGUGCUGAGCAGGGCUGAGCUGGCUGAAGCUUCGUGCAC,-0.0318,-0.0769,-0.556
hsa-mir-6889 (structured_RNA) RNA: GGGAAAAGCGAUAACCGGUGGCCGUCUUGGUGUACGAAGUUUCAGCCGGAAUUCUCCAGAGCCUCUGGCUGAAGCUUCGUGCAC,-0.0337,-0.316,-0.756
hsa-mir-3689d-1 (structured_RNA) RNA: GGGAACAUAGUAUGACGUCCGGCUACUCGGUGUACGAAGUUUCAGCCUCGCUGGGAGGUGUGCUAUCGUCUUCCCCGGGAGGCUGAAGCUUCGUGCAC,-0.0356,-1.02,0.644
hsa-mir-4696 (structured_RNA) RNA: GGGAAACAUGGGAAUCCACUUAUGCUCGGGUGUACGAAGUUUCAGCAUCUAUUCCAGAAGAUGCUGAAGCUUCGUGCAC,-0.0371,0.163,-0.273
hsa-mir-6859-1_6859-3_6859-2_6859-4 (structured_RNA) RNA: GGGACACGUUACGCUGGAUAGACAACGCGGUGUACGAAGUUUCAGCCUCAGGACAGCGGGUGUCAGCUUGCCUGACGCUGAAGCUUCGUGCAC,-0.0371,0.215,-0.87
hsa-mir-548i-4 (structured_RNA) RNA: GGGAACCGGGGUUUAGAUUAUACCCGCCGGUGUACGAAGUUUCAGCUGCCAUACUUUUAACGGCAGCUGAAGCUUCGUGCAC,-0.0391,0.877,-0.158
hsa-mir-4645 (structured_RNA) RNA: GGGCAAGCGGCCACUUAAAACAGCGAAAGGUGUACGAAGUUUCAGCUUGUCUCCUCAAGUUGCGACGAGACAGGCUGAAGCUUCGUGCAC,-0.0427,0.045,-0.707
hsa-mir-19b-2 (structured_RNA) RNA: GGGAUCUGUGCCAUCCGGGCUAACGUAUGGUGUACGAAGUUUCAGCCAUUUCAGCGUAUAUAUGUAUAUGUGGCUGUGGCUGAAGCUUCGUGCAC,-0.043,-1.09,-1.3
hsa-mir-6882 (structured_RNA) RNA: GGGAGACUGUAACCGUUGAUUGCCUACAGGUGUACGAAGUUUCAGCGCAGCUGGAAUUCAAGCCCUGCUGCGCUGAAGCUUCGUGCAC,-0.0445,1.07,-0.354
hsa-mir-3926-1 (structured_RNA) RNA: GGGAACUAACGGACAAUGCGUGUUUUAAGGUGUACGAAGUUUCAGCGAGACUUUAAAAGCGUCUCGCUGAAGCUUCGUGCAC,-0.0533,0.893,-0.456
